According to US7767398B2, “Means and methods for diagnosing and treating affective disorders” (Affectis Pharmaceuticals AG, priority 2003, dated 2010):

Test system: P2X7R
Assay type: in vivo, mouse
Conditions: paroxetine 28 days; immunohistochemistry
Description: The expression of P2X7R was further studied by immunohistochemistry of serial sections of complete mouse brains using a polyclonal antibody directed against an internal peptide of P2X7R (Santa Cruz Biotechnology). The brains from stress-free mice were shock frozen, cut into 16 μm slices and fixed with paraformaldehyde for 5 minutes. The sections were blocked for 30 minutes at room temperature with 1:10 horse serum. All antibodies were diluted in TBST buffer (Tris-buffered saline with 0.05% Tween-20). The first antibody was used in a dilution 1:200 and incubated overnight. All washes were performed with TBST buffer. As a secondary antibody, an anti-goat IgG biotinylated (Vector Laboratories) was used and detection was performed using the streptavidin-biotin-horse-radish peroxidase complex system (Vector Laboratories) in combination with diaminobencidine. Slides were counterstained with toluidine blue using standard procedures. The same procedure in the absence of the primary antibody was performed as a negative control. As a positive control to test the Preservation of the tissue was verified with an antibody specific for the protein Patched1 (Santa Cruz Biotechnology). Patched1 was used as positive control since it stains all relevant brain structures and is not affected by stress or antidepressants. Very specific staining pattern was detected, consistent with the specific subcellular localization of P2X7R in brain cells. Negative controls were completely devoid of signal.
The expression of P2X7R in the brains of mice under stress-free conditions, and mice under mild stress produced by the vehicle application, and mice under paroxetine treatment was evaluated using three different brains from each group. […] This effect was observed all along the hippocampus but was more evident in the polymorph layer near the dentate gyrus. […] Therefore, P2X7R expression is strongly regulated in two specific brain areas involved in depression and stress.
At the end of the experiment, the mice were sacrificed and the brains were examined to confirm the location and efficiency of the siRNA injections. For this purpose the brains were cut into sections and the slides were stained by immunohistochemistry using the above mentioned protocols. Brains from mice injected with the specific double stranded siRNA, with control double stranded RNA and with vehicle were examined in parallel. Under these conditions, the specific siRNA directed against P2X7R injected near the dentate gyrus induced on average an 80% inhibition of P2X7R protein expression as compared to the samples from mice injected with vehicle or with control double stranded RNA. […] This inhibition produced behavioural changes indicating a causative role for P2X7R in affective disorders.

Fc1ccc([C@@H]2CCNC[C@H]2COc2ccc3c(c2)OCO3)cc1 [paroxetine]
P2X7R expression in ependymal cells: No significant change
P2X7R expression in the hippocampus: marked stimulation above basal levels
P2X7R expression in the olfactory bulb: No significant change
P2X7R expression in the periventricular nucleus of the hypothalamus: slight inhibition
P2X7R expression in the subcommissural organ: remained unchanged
